## Binding of CDR-mutated scFvs to a peptide of the spike HR2 region

Binding partner: SARS-CoV-2 spike HR2 peptide, sequence PDVDLGDISGINAS.

The variants keep the heavy chain, the linker and the frameworks of Ab-95 (scFv order VH, a 15-residue (Gly4Ser)3 linker, VL).
VH: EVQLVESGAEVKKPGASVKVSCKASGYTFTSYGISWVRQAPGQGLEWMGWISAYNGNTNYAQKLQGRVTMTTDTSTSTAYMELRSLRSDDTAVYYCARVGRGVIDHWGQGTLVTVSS
VL: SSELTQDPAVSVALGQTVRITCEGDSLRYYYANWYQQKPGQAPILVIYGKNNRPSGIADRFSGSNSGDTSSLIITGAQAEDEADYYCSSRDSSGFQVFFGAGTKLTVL

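The parent was found by panning a naive human phage display library on the peptide. In library AAYL52, one, two or three CDR residues were substituted; doubles and triples were drawn at random. AlphaSeq pools MATa yeast showing the antibodies with MATalpha yeast showing the peptide. Pairs that bind mate more often; barcode pairs of the diploids are counted by sequencing. Read counts were normalised to the haploid input and turned into Kd by a linear fit to BCL2-family pairs of known affinity, for each replicate. The assay was run in three technical replicates.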

Each variant is given by its three light chain CDRs, as the data file delimits them; those of the parent are EGDSLRYYYAN, GKNNRPS, SSRDSSGFQVF.
Values are log10 of the apparent Kd in nM; lower means stronger binding.
A mean of the replicates is given; it leaves out those without a signal.
An entry "not detected" has no value in the source: the pair was not observed among the diploids in any replicate. This suggests poor binding but is not conclusive.

mean, log10 nM	seen in	signal with controls	CDR-L1	CDR-L2	CDR-L3
3.26	1/3	1/9	EGDSLRYYYAN	GQNNRPS	SSRDSSNFQVQ
2.20	3/3	4/9	ECMSLRYYYAN	GKNNRPS	SSRDSSGFQVF
4.34	2/3	1/9	EGDSLRYYYAN	CKPNRPS	SSRDSYGFQVF
4.14	2/3	2/9	EKDSLRYYYAN	GKNNRPS	SSRDSDGFQMF
3.73	1/3	2/9	EGDSLRYYYAN	GKNNRWS	SSYDSSGFQVF
3.99	2/3	4/9	EGDSLRWYYAN	GKMWRPS	SSRDSSGFQVF
4.11	3/3	4/9	EGDSLRYYYAN	GKNWRAS	SSRDSSGFQLF
2.40	3/3	2/9	VGDSLRYYYAN	GKNNRPM	SSRDSSGFQVY
3.31	3/3	2/9	EGDSLRYRYAN	GKNNRPD	SSRDSSGFQVF
3.83	2/3	1/9	EDDSLRYYYAN	GKNNRPS	SWRDSKGFQVF
2.60	3/3	3/9	EGDSLRYYYAN	GKNNRPS	SSRDSSGFVNY
3.71	3/3	2/9	EGDSKWYYYAN	GKNNRPS	SSNDSSGFQVF
4.00	2/3	1/9	ENDSLRYYYAN	GDNNRPS	SSRGSSGFQVF
4.22	1/3	1/9	EGDSLRKYYAN	GKNNRPS	FSRDSSGVQVF
3.07	3/3	5/9	EMDSLRYYYAN	SKNNRPS	SSRDSSGFQVG
2.38	3/3	5/9	EGDSLRYYYAN	GKNGRPS	SSRDSQGFRVF
3.95	3/3	4/9	EGDSLRYWLAN	GKNNRPS	SSRESSGFQVF
4.50	1/3	1/9	EGDSIRYYYAI	GKNNRPS	SSRDSSGFLVF
3.45	3/3	2/9	EGCSLRYYYAN	GKNNRPS	SDRDLSGFQVF
3.67	1/3	0/9	EGDSLRYYDAY	GKNNRPS	SSRDSKGFQVF
3.61	1/3	2/9	IGDSLRYYYAN	GKNGRPS	SSRDSSKFQVF
2.28	3/3	4/9	VGDSLRYYYAN	GKNNRPS	SSRDGSCFQVF
5.10	2/3	2/9	EGDSLRYYEAN	GKNNDPS	SSRYSSGFQVF
4.19	1/3	0/9	EGDSLRYYYRN	GKHDRPS	SSRDSSGFQVF
4.39	2/3	2/9	EGFSLRYYYVN	GKNNRPS	SSSDSSGFQVF
3.77	1/3	3/9	EGDSLMYYYAN	GKENRES	SSRDSSGFQVF
4.12	3/3	4/9	EGDSLTVLYAN	GKNNRPS	SSRDSSGFQVF
4.98	1/3	3/9	EGDSLRQYYAN	WKNNRPC	SSRDSSGFQVF
4.76	2/3	4/9	EGDSLRYYYAP	GKNNRPS	QSGDSSGFQVF
3.64	2/3	4/9	EGDSLRYYYAN	MKNDRPS	SSRDSSGFVVF
not detected	0/3	3/9	EGDPLRYYYHC	GKNNRPS	SSRDSSGFQVF
3.75	2/3	3/9	EGCSLHYYYAN	GKNNRPM	SSRDSSGFQVF
not detected	0/3	2/9	EGDCLRYYYAN	GKNTRPK	SSRDSSGFQVF
2.30	3/3	0/9	EGDSMRYYYAN	GKNNRPN	SSRDSSGFQIF
1.96	3/3	4/9	EGDALRYYYAN	GDNNRPS	SSVDSSGFQVF
not detected	0/3	1/9	EGDSLRYYYAG	GKNVRFS	SSRDSSGFQVF
3.42	2/3	1/9	EGDSAQYYYAN	GKNNRPS	SSRDSSGPQVF
2.51	3/3	3/9	EGDSLRYYYAN	GKNNRPS	AQRDSSAFQVF
4.06	2/3	1/9	EGDSLRYYYAN	GKNNRPD	SSRDSRIFQVF
not detected	0/3	0/9	EGDSLRYYYAN	LKNNRPS	SSRDSVGFQVE
4.25	1/3	3/9	EGDSLRYYYAD	GKNNGAS	SSRDSSGFQVF
3.78	3/3	2/9	EGDSLRYYYAN	GKNYRMS	SSRDSSGFCVF
3.65	2/3	3/9	EGDSLRYYCEN	GKNNRPS	SSRDSSGFQVF
4.36	2/3	3/9	EGDSLRYYYAK	GHNNRPS	SSRDSSGFQVF
2.38	3/3	2/9	EGDSLRYYYAN	GKNSRPS	SSDDSSGFQGF
4.46	3/3	1/9	EGDSLRYYYAN	GKNNRPS	SSRHHMGFQVF
not detected	0/3	0/9	EGDSARYYYAA	GKNNRPS	SFRDSSGFQVF
5.40	1/3	1/9	EGDSLRYYYAN	GFNNRPE	SNRDSSGFQVF
2.11	3/3	3/9	EGDSLRYYYAN	GKNNRPS	SSRTNDGFQVF
3.97	2/3	5/9	EGDSLRYYYAN	GKYNRPS	SSTDSSWFQVF
2.62	3/3	1/9	EEASLRYYYAN	GKNNRPS	SSRDSSGFQVF
not detected	0/3	2/9	EGDSRRYYYAN	GKHNRPS	SSRDSSGFQVF
not detected	0/3	1/9	YGDSHRYYYWN	GKNNRPS	SSRDSSGFQVF
2.80	1/3	5/9	EGDSCRYYYAN	GKNNRPS	SSRDSDGFQNF
3.35	1/3	3/9	ERDSLEWYYAN	GKNNRPS	SSRDSSGFQVF
1.69	3/3	0/9	EGDSLRYNYAN	GKNNRPS	SSRDSMGFQNF
not detected	0/3	2/9	EGDSLRMYYAN	KKNNRPS	SSRDSSGFQVS
4.03	2/3	2/9	EGDSLRYYYAN	FKNNRSE	SSRDSSGFQVF
3.10	3/3	1/9	EGDSLRYYYAN	GKNNRLS	SSRFSSGFQVK
3.73	3/3	2/9	EGDSLFYYYAN	GKDNKPS	SSRDSSGFQVF
3.68	1/3	3/9	EGDSLRYYYEN	GKNNRPS	SSRMSSDFQVF
3.43	3/3	2/9	EGDSLHYYYAN	GKNNRPH	SSRDSSGFQHF
4.27	2/3	1/9	EGDRLRYYYAN	GKNNRPS	SSRDSLGFQVP
not detected	0/3	0/9	EGDSCRYYYAS	GKNNRPS	SSRDSSGSQVF
4.23	1/3	4/9	ERRSLRYYYAN	GKNNRPS	SSRDSSGFQNF
4.99	1/3	2/9	EGDSLRYYDAN	GKNNRPS	YSRDSSGFQMF
4.64	2/3	4/9	EGDSLRLYYAN	GKTNRPK	SSRDSSGFQVF

A selection of 9 entries from above:

CDR-L1	CDR-L2	CDR-L3	mean, log10 nM	seen in	signal with controls
EGDSRRYYYAN	GKHNRPS	SSRDSSGFQVF	not detected	0/3	2/9
EGDSLHYYYAN	GKNNRPH	SSRDSSGFQHF	3.43	3/3	2/9
EGDSLRYYYAP	GKNNRPS	QSGDSSGFQVF	4.76	2/3	4/9
EGDSLRYWLAN	GKNNRPS	SSRESSGFQVF	3.95	3/3	4/9
EGDSLRQYYAN	WKNNRPC	SSRDSSGFQVF	4.98	1/3	3/9
EGDSLRYYYAN	GKNNRPS	AQRDSSAFQVF	2.51	3/3	3/9
EGDSLRYYYAN	GQNNRPS	SSRDSSNFQVQ	3.26	1/3	1/9
YGDSHRYYYWN	GKNNRPS	SSRDSSGFQVF	not detected	0/3	1/9
EGDSLRYYYAN	GKNNRPS	SSRHHMGFQVF	4.46	3/3	1/9

In this assay the parent's reference entry averaged 2.31; its copy inside this library read 2.25.
Nonspecific signal, from three strains lacking the peptide, appeared in 28% of pairings of library AAYL52, centred on 3.91 (5% of these signals below 2.90); values are not corrected for it. The control count says in how many pairings with the empty strains this scFv gave a signal.

Values reported by Engelhart et al. 2022, doi:10.1038/s41597-022-01779-4 (FLAb copy).